# Results published in PubChem BioAssay AID2250 (Sanford-Burnham Center for Chemical Genomics, 2010).
# Calls of active or inactive are those of the source. The rule behind the calls is not given here.
# System: MCF-7/NOD1 cells, GM-Tri-DAP induced IL-8 secretion
# Assay: inhibition of NOD1-driven IL-8 release, SAR follow-up, MCF-7/NOD1 cells, GM-Tri-DAP stimulus (AID 2250)
row,SMILES,IC50
1,COc1ccc(S(=O)(=O)n2c(N)nc3ccccc32)cc1,3.13 µM
2,Nc1nc2ccccc2n1S(=O)(=O)c1ccccc1,2.41 µM
3,Cc1ccc(S(=O)(=O)n2cnc3ccccc32)cc1,inactive: > 5 µM
